Data: patent US8846903B2, “Acyl-urea derivatives and uses thereof” (Yissum Research Development Company of the Hebrew …, priority 2007, dated 2014)

Tested on: Sprague Dawley rats
Assay: Pilocarpine-induced status epilepticus (SE) protection assay in rats
Conditions: for Average weight change: ± S.E.M.
[1] = 18.75 mg/kg i.p., 0 hours after first stage III seizure
[2] = 37.5 mg/kg i.p., 0 hours after first stage III seizure
[3] = 37.5 mg/kg i.p., 0.25 hours after first stage III seizure
[4] = 50 mg/kg i.p., 0 hours after first stage III seizure
[5] = 75 mg/kg i.p., 0 hours after first stage III seizure
[6] = 75 mg/kg i.p., 0.25 hours after first stage III seizure
[7] = 75 mg/kg i.p., 0.5 hours after first stage III seizure
[8] = 100 mg/kg i.p., 0 hours after first stage III seizure
[9] = 100 mg/kg i.p., 0.25 hours after first stage III seizure
[10] = 112.5 mg/kg i.p., 0.5 hours after first stage III seizure
[11] = 150 mg/kg i.p., 0.5 hours after first stage III seizure
[12] = 200 mg/kg i.p., 30 hours after first stage III seizure

`CC[C@@H](C)[C@@H](CC)C(=O)NC(N)=O` (racemic) [Compound 4, 1-(2-ethyl-3-methyl-pentanoyl)-urea] was tested, and the Died [1] was 0, the Prot./Tested [1] was 3/7 and the Average weight change [1] was −7.9 ± 6.5 grams. The Comments [2] was “Sedated”, the Died [2] was 0 and the Prot./Tested [2] was 6/8. For the same compound, the Average weight change [2] was “+8.8 ± 5.4 grams”, the Died [3] was 0 and the Prot./Tested [3] was 9/15. The Average weight change [3] was −13.3 ± 3.4 grams, the Died [4] was 1 and the Prot./Tested [4] was 4/8. For the same compound, the Average weight change [4] was −3.6 ± 6.5 grams, the Comments [5] was “Sedated” and the Died [5] was 0. For the same compound, the Average weight change [5] was “+15.6 ± 2.2 grams”, the Comments [6] was “Sedated” and the Died [6] was 0. For the same compound, the Average weight change [6] was −3.1 ± 6.2 grams, the Comment [7] was “Sedated” and the Died [7] was 2. The Prot./Tested [7] was 4/8, the Average weight change [7] was −14.2 ± 1.3 grams and the Died [8] was 0. For the same compound, the Prot./Tested [8] was 8/8, the Average weight change [8] was “+9.4 ± 1.1 grams” and the Died [9] was 0. For the same compound, the Prot./Tested [9] was 1/8, the Average weight change [9] was −17.5 ± 2.5 grams and the Comment [10] was “Sedated”. For the same compound, the Died [10] was 0, the Prot./Tested [10] was 6/8 and the Average weight change [10] was −23.1 ± 3.2 grams. The Comment [11] was “Sedated”, the Died [11] was 1 and the Prot./Tested [11] was 6/8. The Average weight change [11] was −21.4 ± 2.4 grams, the Died [12] was 1 and the Prot./Tested [12] was 2/6. The Average weight change [12] was −18.0 ± 1.6 grams and the “ED50 Values, Dose” value (i.p., pilocarpine model, TPE 0 hours) was 22.73 mg/kg.
